According to US20260286356A1, “NUCLEIC ACID VACCINE FOR ACTIVATING NKG2C+ NATURAL KILLER CELLS” (priority 2023, published 2026):

Target: HLA-E (Homo sapiens, UniProt P13747)
Test: HLA-E surface stabilization assay with RMA-S/HLA-E cells
Format: cell-based
Conditions: RMA-S/HLA-E cells incubated with 30 μM peptide, anti-HLA-E antibody
Description: Assessment of peptide-HLA-E binding via HLA-E surface stabilization assay with RMA-S/HLA-E cells incubated with 30 μM peptide. HLA-E expression is detected with an anti-HLA-E antibody.
To do so, various sequence variants were assessed for their ability to stabilize surface-expressed HLA-E on RMA-S/HLA-E cells, a TAP-deficient mouse tumor cell line engineered to express HLA-E and human β2M (FIG. 3).

Sequence: RMPPRSVLL
- stabilization of HLA-E surface expression (peptide-HLA-E binding): strong stabilization of HLA-E
